Protein sequences, listed by entry. Tags and fused reporters are not part of them.
UniProt P51681, whole entry: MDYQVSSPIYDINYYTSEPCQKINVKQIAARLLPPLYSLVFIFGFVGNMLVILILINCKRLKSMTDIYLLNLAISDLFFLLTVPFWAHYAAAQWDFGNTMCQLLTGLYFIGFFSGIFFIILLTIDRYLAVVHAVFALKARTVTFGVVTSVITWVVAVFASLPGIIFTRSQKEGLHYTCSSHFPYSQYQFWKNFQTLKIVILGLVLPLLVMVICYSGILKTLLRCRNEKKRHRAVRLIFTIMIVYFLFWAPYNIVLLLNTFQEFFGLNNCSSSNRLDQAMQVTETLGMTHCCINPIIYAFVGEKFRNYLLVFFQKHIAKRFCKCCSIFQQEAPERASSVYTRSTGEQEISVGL

In patent publication US20080021038A1, “Novel Piperidine/8-Azabicyclo [3.2.1.] Octan Derivatives As Modulators Of Chemokine Receptor Ccr5” (priority 2004, published 2008):

Molecular target: recombinant human CCR5 receptor (Homo sapiens, UniProt P51681)
Test: MIP-1α radioligand binding assay (scintillation proximity)
Conditions: displacement of 0.1 nM iodinated MIP-1α; membranes from Chinese hamster ovary cells expressing recombinant human CCR5; average if tested more than once
Experimental: The ability of compounds to inhibit the binding of MIP-1α was assessed by an in vitro radioligand binding assay. Membranes were prepared from Chinese hamster ovary cells which expressed the recombinant human CCR5 receptor. These membranes were incubated with 0.1 nM iodinated MIP-1α, scintillation proximity beads and various concentrations of the compounds of the invention in 96-well plates. The amount of iodinated MIP-1α bound to the receptor was determined by scintillation counting. Competition curves were obtained for compounds and the concentration of compound which displaced 50% of bound iodinated MIP-1α was calculated (IC50).
In Table X the results are presented as Pic50 values. A Pic50 value is the negative log (to base 10) of the IC50 result, so an IC50 of 1 μM (that is 1×10^−6M) gives a Pic50 of 6. If a compound was tested more than once then the data below is an average of the probative tests results.

| SMILES | Pic50 |
| --- | --- |
| COC1(CCS(=O)(=O)c2ccc(S(C)(=O)=O)cc2)CCN(CC[C@@H](c2cc(F)cc(F)c2)C2CCOCC2)CC1 | 9.5 |
| CC1(CCS(=O)(=O)c2ccc(S(C)(=O)=O)cc2)CCN(CCC(c2ccccc2)C2CCN(S(C)(=O)=O)CC2)CC1 (stereo not shown) | 9.2 |
| Cn1ccnc1CC1(O)CCN(CC[C@@H](c2cc(F)cc(F)c2)C2CCN(S(C)(=O)=O)CC2)CC1 | 6.3 |
| CC1(CCS(=O)(=O)C2CCOCC2)CCN(CC[C@@H](c2cc(F)cc(F)c2)C2CCN(S(C)(=O)=O)CC2)CC1 | 8.3 |
| CS(=O)(=O)c1ccc(S(=O)(=O)CCC2(F)CCN(CC[C@@H](c3cc(F)cc(F)c3)C3CCOCC3)CC2)cc1 | 9.3 |
| Cn1ccnc1C1(O)C[C@H]2CC[C@@H](C1)N2CC[C@@H](c1cc(F)cc(F)c1)C1CCN(S(C)(=O)=O)CC1 (stereo partly shown) | 7.3 |
| COc1ccc(S(=O)(=O)CCC2(OC)CCN(CC[C@@H](c3cc(F)cc(F)c3)C3CCN(S(C)(=O)=O)CC3)CC2)cc1 | 9.3 |
| CS(=O)(=O)c1ccc(S(=O)(=O)CCC2(F)CCN(CC[C@H](NC(=O)C3CCC(F)(F)CC3)c3ccccc3)CC2)cc1 | 9.5 |
| COc1ccc(S(=O)(=O)CCC2(O)CCN(CC[C@@H](c3cc(F)cc(F)c3)C3CCN(S(C)(=O)=O)CC3)CC2)cc1 | 9.5 |
| CS(=O)(=O)c1ccc(S(=O)(=O)CCC2(F)CCN(CC[C@@H](c3cc(F)cc(F)c3)C3CCS(=O)(=O)CC3)CC2)cc1 | 9.4 |

Second part, the compound after the results:

| Pic50 | SMILES |
| --- | --- |
| 9.5 | CC1(CCS(=O)(=O)c2ccc(S(C)(=O)=O)cc2)CCN(CC[C@@H](c2cc(F)cc(F)c2)C2CCS(=O)(=O)CC2)CC1 |
| 9.3 | COC1(CCS(=O)(=O)c2ccc(S(C)(=O)=O)cc2)CCN(CC[C@@H](c2cc(F)cc(F)c2)C2CCN(S(C)(=O)=O)CC2)CC1 |
| 8.9 | CS(=O)(=O)c1ccc([C@@H](CCN2CCC(F)(CCS(=O)(=O)c3ccc(S(C)(=O)=O)cc3)CC2)c2cc(F)cc(F)c2)cc1 |
| 9.4 | CS(=O)(=O)c1ccc(S(=O)(=O)CCC2(C#N)CCN(CC[C@@H](c3cc(F)cc(F)c3)C3CCN(S(C)(=O)=O)CC3)CC2)cc1 |
| 8.0 | CCC1(CCS(=O)(=O)c2ccc(S(C)(=O)=O)cc2)CCN(CC[C@H](c2ccc(S(C)(=O)=O)cc2)c2cc(F)cc(F)c2)CC1 |
| 5.8 | CCC1(NC(=O)Cc2ccc(S(C)(=O)=O)cc2)CCN(CC[C@H](c2ccc(S(C)(=O)=O)cc2)c2cc(F)cc(F)c2)CC1 |
| 8.0 | CCN(C(=O)Cc1ccc(S(C)(=O)=O)cc1)C1(C)CCN(CC[C@@H](c2cc(F)cc(F)c2)C2CCN(S(C)(=O)=O)CC2)CC1 |
| 8.3 | CCC1(CCS(=O)(=O)c2ccc(S(C)(=O)=O)cc2)CCN(CC[C@@H](c2cc(F)cc(F)c2)C2CCN(S(C)(=O)=O)CC2)CC1 |
| 8.3 | CC1(n2cnc3cc(S(C)(=O)=O)ccc32)CCN(CC[C@H](c2ccc(S(C)(=O)=O)cc2)c2cc(F)cc(F)c2)CC1 |
| 7.7 | CC1([C@@H](CCN2CCC(C#N)(CCS(=O)(=O)c3ccc(S(C)(=O)=O)cc3)CC2)c2cc(F)cc(F)c2)CCOCC1 |
| 8.5 | CS(=O)(=O)c1ccc([C@@H](CCN2CCC(C#N)(CCS(=O)(=O)c3ccc(S(C)(=O)=O)cc3)CC2)c2cc(F)cc(F)c2)cc1 |
| 8.1 | CS(=O)(=O)c1ccc(CC2(O)CCN(CC[C@@H](c3cc(F)cc(F)c3)C3CCN(S(C)(=O)=O)CC3)CC2)cc1 |
